The record followed here is PubChem BioAssay AID1851 (National Center for Advancing Translational Sciences (NCATS), 2009).

Amino acid sequences for entries named in this document (tags omitted).
UniProt P10635, whole entry, looked up: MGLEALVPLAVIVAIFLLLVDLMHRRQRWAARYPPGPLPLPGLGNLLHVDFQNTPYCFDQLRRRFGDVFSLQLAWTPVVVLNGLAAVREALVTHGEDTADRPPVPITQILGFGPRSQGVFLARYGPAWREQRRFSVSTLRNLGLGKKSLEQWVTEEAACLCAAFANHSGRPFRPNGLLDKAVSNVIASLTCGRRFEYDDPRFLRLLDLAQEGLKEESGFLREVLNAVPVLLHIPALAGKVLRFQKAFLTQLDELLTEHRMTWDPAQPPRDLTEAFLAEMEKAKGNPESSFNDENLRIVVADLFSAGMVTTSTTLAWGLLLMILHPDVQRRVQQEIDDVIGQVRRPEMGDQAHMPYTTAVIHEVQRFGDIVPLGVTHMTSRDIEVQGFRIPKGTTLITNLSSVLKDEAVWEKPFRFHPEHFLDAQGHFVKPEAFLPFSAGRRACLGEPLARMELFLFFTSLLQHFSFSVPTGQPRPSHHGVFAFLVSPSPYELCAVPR

Structures are written as SMILES. What follows is the remainder of the data, with few or none of the hits. Records with an inconclusive call do not appear. Active and inactive are the calls of the source. Calls follow the shape of the dose curve; as a rule, active = well fitted curve in the direction sought with a large enough effect; inconclusive = small, poorly fitted or top-dose-only effect, or effect the other way; inactive = no such curve, though single readings can be large or run the other way.
% is scaled to controls: 0 for no effect and ±100 for the full control effect.

The assay concerns the target Cytochrome P450 2D6 (Homo sapiens) (UniProt P10635). Kind of assay: Cytochrome panel assay with activity outcomes. To be noted: recombinant CYP, pro-luciferin dealkylation, luminescence, p450-cyp2d6; at 57.1 µM (top of the series) unless noted.
`O=C(Nc1cccc(F)c1)N1CCC2(CC1)CCN(C(=O)Oc1ccccc1)CC2`: the activity, negative = inhibition is inactive: -4.74%.

For the compound `CN(CCC(=O)O)C1=Nc2ccc(Cl)cc2C(c2ccccc2)=[N+]([O-])C1`, the activity, negative = inhibition is inactive: 14.4% [at 11.4 µM].
